From PubChem
Shown is part of a subset that was picked to be rich in hits.
GIV Gai3 FP = inhibitors of GIV peptide binding to Galpha-i3, primary screen, biochemical, fluorescence polarization, FITC-GIV GBA peptide, rat Galphai3 | 90 min; active compounds read low; scaled: aluminum fluoride 0%, vehicle 100% | percent of control (FP), % (test concentration not listed) | hit rate 0.42% among 210,000;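 active = replicate mean at 85% of control or lower, very high polarization wells dropped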;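 also: lower values mean more displacement of the GIV peptide from Galpha-i3; wells of about 15 µL received 100 nL stock; the first replicate is given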
* marks the source's active call; other numbers are inactive results.

Molecule	GIV Gai3 FP
CC1CCCN(Cc2c(O)ccc3c(=O)c(Oc4ccccc4Cl)c(C(F)(F)F)oc23)C1 (stereo not given)	99
CCC1CCCCN1Cc1c(O)ccc2cc(-c3nc4ccccc4[nH]3)c(=O)oc12 (stereo not given)	-42*
CC1CCCCN1Cc1c(O)ccc2c3c(c(=O)oc12)CCC3 (stereo not given)	102
CC1CCCN(C/C(O)=C(\C#N)c2nc3ccccc3[nH]2)C1 (stereo not given)	104
CN1CCN(Cc2c(O)ccc3cc(-c4nc5ccccc5[nH]4)c(=O)oc23)CC1	-75*
COc1ccc(-c2cc3ccc(O)c(CN4CCN(C)CC4)c3oc2=O)cc1OC	119
Cc1cccc(-c2cc(N3CCN(C(=O)c4cc(F)ccc4Cl)CC3)ncn2)c1	103
Cc1cc2n(n1)CCC(=O)N2CC(=O)NCCC(C)C	108

Laid out differently: 2 of the compounds above
GIV Gai3 FP,structure
99,CC1CCCN(Cc2c(O)ccc3c(=O)c(Oc4ccccc4Cl)c(C(F)(F)F)oc23)C1 (stereo not given)
-42*,CCC1CCCCN1Cc1c(O)ccc2cc(-c3nc4ccccc4[nH]3)c(=O)oc12 (stereo not given)

Carrying on.
Molecule	GIV Gai3 FP
COc1ccc(C2=NN(C(=O)c3cc(OC)c(OC)c(OC)c3)C(c3ccccc3OC)C2)cc1OC (stereo not given)	97
CC(C)c1ccc(/C=C/C23NC(=O)CCN2c2ccccc2C3(C)C)cc1 (stereo not given)	100
CCOc1ccc(NC(=O)Nc2ccc(Nc3cc(N(C)C)nc(C)n3)cc2)cc1	95
O=C1C=CC(=O)N1c1ccccc1N1CCCCCC1	101
O=C1c2cccc3c(N4CCCCC4)ccc(c23)C(=O)N1c1ccccn1	-29*
CC(=O)N(C(C)=O)N1C(=O)c2cccc3c(N4CCOCC4)ccc(c23)C1=O	165
COc1cccc(CNC(=O)c2ccc3nc4ccc(Cl)cc4c(=O)n3c2)c1	110
CS(=O)(=O)N1CCCN(C(=O)C2CCCO2)CC1 (stereo not given)	99

Molecule	GIV Gai3 FP
Cc1nc(-c2cc(NC(=O)c3ccc(F)c(Cl)c3)c(C)s2)no1	98
CCCCCC1CC(CC(O)CO)C(=O)O1 (stereo not given)	122
Cc1csc(-c2cc(S(=O)(=O)Nc3ccc(C)c(F)c3)c(C)s2)n1	66*
Cc1csc(-c2cc(S(=O)(=O)Nc3ccc(S(N)(=O)=O)cc3)c(C)s2)n1	170
Cc1csc(-c2cc(S(=O)(=O)Nc3cccc(Cl)c3)c(C)s2)n1	180
CC(C)CC(C(=O)Nc1nnc(C(C)C)s1)N1C(=O)c2ccccc2C1=O (stereo not given)	109
CCOC(=O)C1=C(C)N=c2s/c(=C\c3cc(Br)c(O)c(OC)c3)c(=O)n2C1c1cccs1 (stereo not given)	77*
CCOC(=O)C1=C(C)N=c2s/c(=C\c3ccc(OC)c(OC)c3)c(=O)n2C1c1ccc2c(c1)OCO2 (stereo not given)	101

A different layout for part of the listing above:
| GIV Gai3 FP | Molecule |
| --- | --- |
| 77* | CCOC(=O)C1=C(C)N=c2s/c(=C\c3cc(Br)c(O)c(OC)c3)c(=O)n2C1c1cccs1 (stereo not given) |
| 98 | Cc1nc(-c2cc(NC(=O)c3ccc(F)c(Cl)c3)c(C)s2)no1 |
| 109 | CC(C)CC(C(=O)Nc1nnc(C(C)C)s1)N1C(=O)c2ccccc2C1=O (stereo not given) |
| 180 | Cc1csc(-c2cc(S(=O)(=O)Nc3cccc(Cl)c3)c(C)s2)n1 |

Other structures follow.
Molecule	GIV Gai3 FP
CCOC(=O)C1=C(C)N=c2s/c(=C\c3cc(OC)c(OC)c(OC)c3)c(=O)n2C1c1ccc2c(c1)OCO2 (stereo not given)	103
CCOC(=O)C1=C(C)N=c2s/c(=C\c3cc(Br)c(OC)cc3OC)c(=O)n2C1c1cccs1 (stereo not given)	147
CCOC(=O)C1=C(C)N=c2s/c(=C\c3cc(Br)c(O)c(OC)c3)c(=O)n2C1c1ccc(OC)c(OC)c1 (stereo not given)	147
CCOC(=O)C1=C(C)N=c2s/c(=C\c3cc(Br)c(O)c(OC)c3)c(=O)n2C1c1ccc2c(c1)OCO2 (stereo not given)	-57*
COc1ccc(NC(=O)c2cccc(Nc3ccc(-c4cccc(C)c4)nn3)c2)cc1OC	103
O=C(COc1ccc(Cl)cc1Cl)NN1C(=O)c2cccc3c([N+](=O)[O-])ccc(c23)C1=O	100
CN(C)c1ccc2c3c(cccc13)C(=O)N(c1nc3ccccc3n1C)C2=O	146
CC(=O)NN1C(=O)c2cccc3c(N(C)C)ccc(c23)C1=O	66*

Molecule	GIV Gai3 FP
O=S(=O)(NC1CCCCCCC1)c1ccc2c(c1)-c1oncc1CO2	101
CCOC(=O)C1=C(C)N=c2s/c(=C/c3cccc([N+](=O)[O-])c3O)c(=O)n2C1c1cc(OC)c(OC)c(OC)c1 (stereo not given)	108
CCOC(=O)C1=C(C)N=c2s/c(=C/c3cccc([N+](=O)[O-])c3O)c(=O)n2C1c1ccc(OC)c(OC)c1 (stereo not given)	106
CCOC(=O)C1=C(C)N=c2s/c(=C/c3cc([N+](=O)[O-])ccc3N3CCN(C)CC3)c(=O)n2C1c1ccc(F)cc1 (stereo not given)	100
CCOC(=O)C1=C(C)N=c2s/c(=C\c3cc([N+](=O)[O-])ccc3N3CCOCC3)c(=O)n2C1c1ccc(OC)cc1 (stereo not given)	104
CCOC(=O)C1=C(C)N=c2s/c(=C/c3cc([N+](=O)[O-])ccc3O)c(=O)n2C1c1ccc(SC)cc1 (stereo not given)	26*
CCOC(=O)C1=C(C)N=c2s/c(=C/c3cc(Br)cc([N+](=O)[O-])c3O)c(=O)n2C1c1ccccc1 (stereo not given)	26*
CCOC(=O)c1sc2nc(SCC(=O)O)n(Cc3ccccc3)c(=O)c2c1C	110

Molecule	GIV Gai3 FP
CCc1nn(CC(=O)NC2CCCC(C)C2C)c(=O)c2cc3sc(C)cc3n12 (stereo not given)	103
C[n+]1ccccc1-c1nc2ccccc2s1	101
Nc1ncc(-c2nc3ccccc3s2)c(N)n1	-55*
COc1ccccc1-c1nc2ccccc2s1	104
CN1CCOc2ccc(S(=O)(=O)N3CCc4ccccc4C3)cc21	104
CN(C)CCNC(=O)c1cc2occc2c(Nc2ccc(F)cc2)n1	103
COc1ccc(/C(O)=C2\C(=N)N(c3ccc([N+](=O)[O-])cc3C)C3=C(C(=O)CCC3)C2c2ccc3c(c2)OCO3)cc1 (stereo not given)	117
Cc1ccc(NC(=O)c2cc3ccccc3oc2=N)cc1	104

CCOC(=O)c1ccc(NC(=O)c2cnc(N3CCCC3)nc2C)cc1
- GIV Gai3 FP = 107
Cc1ccc(NC(=O)c2ccc(C#N)cc2)cc1
- GIV Gai3 FP = 94
N=c1oc2c3c4c(cc2cc1C(=O)Nc1ccccc1)CCCN4CCC3
- GIV Gai3 FP = -62*
N#Cc1ccc(NC(=O)c2cc3cc4c5c(c3oc2=N)CCCN5CCC4)cc1
- GIV Gai3 FP = -14*
N=c1oc2ccccc2cc1C(=O)Nc1ccc(F)cc1
- GIV Gai3 FP = 108
CCOC(=O)c1ccc(NC(=O)c2cc3cc4c5c(c3oc2=N)CCCN5CCC4)cc1
- GIV Gai3 FP = -14*
CCC(=O)N1CCCc2cc(S(=O)(=O)N3CCC(C(=O)Nc4ccc(C#N)cc4)CC3)ccc21
- GIV Gai3 FP = 105
CCOC(=O)c1ccc(NC(=O)c2cc3cc(Cl)ccc3oc2=N)cc1
- GIV Gai3 FP = 100
COc1cccc(C(=O)Nc2nnc(CCS(=O)(=O)c3cc(Cl)ccc3Cl)s2)c1
- GIV Gai3 FP = 99
CCCc1ccc(S(=O)(=O)Nc2ccc3nc(S(=O)(=O)CCC)sc3c2)cc1
- GIV Gai3 FP = 104

Cc1ccc(-c2ccc(=O)n(CCc3nc(-c4ccc5c(c4)OCO5)no3)n2)cc1
- GIV Gai3 FP = 107
CCCCOc1ccc(OCCNC(=O)C2CCC(=O)N2)cc1 (stereo not given)
- GIV Gai3 FP = 99
O=C(NCc1cccnc1)C1CCCN(c2ncnc3c2oc2ccccc23)C1 (stereo not given)
- GIV Gai3 FP = 100
COc1cc(OC)cc(N2C(=O)c3cc4ccsc4n3CC2(C)C(=O)NCc2ccccc2OC)c1 (stereo not given)
- GIV Gai3 FP = 102
CCOC(=O)CCNC(=O)N1CCCC1c1cc(C)on1 (stereo not given)
- GIV Gai3 FP = 100
CCOC(=O)c1c(C)sc(-c2c(-c3cc(C)ccc3C)[nH]c3c2c(=O)n(C)c(=O)n3C)c1O
- GIV Gai3 FP = 195
CCOC(=O)c1c(C)sc(-c2c(-c3cccc(Cl)c3)[nH]c3c2c(=O)n(C)c(=O)n3C)c1O
- GIV Gai3 FP = -63*
